Values quoted from earlier work as cited in paper PMC3209708 (Journal of medicinal chemistry, 2011).

Tested on: RT16 cells (FRα)
Conditions: read-out: IC50 RT16 (+FA); cited from earlier work

Nc1nc2[nH]c(CCCCc3ccc(C(=O)N[C@@H](CCC(=O)O)C(=O)O)s3)cc2c(=O)[nH]1 [Compound 4]
IC50: > 1000 nM
